Protein sequences, listed by entry. Tags and fused reporters are not part of them. Chains listed by the source or under a name are the forms on record and can include a tag or linker.
UniProt Q15858, with tags, fused parts or gaps limits assumed: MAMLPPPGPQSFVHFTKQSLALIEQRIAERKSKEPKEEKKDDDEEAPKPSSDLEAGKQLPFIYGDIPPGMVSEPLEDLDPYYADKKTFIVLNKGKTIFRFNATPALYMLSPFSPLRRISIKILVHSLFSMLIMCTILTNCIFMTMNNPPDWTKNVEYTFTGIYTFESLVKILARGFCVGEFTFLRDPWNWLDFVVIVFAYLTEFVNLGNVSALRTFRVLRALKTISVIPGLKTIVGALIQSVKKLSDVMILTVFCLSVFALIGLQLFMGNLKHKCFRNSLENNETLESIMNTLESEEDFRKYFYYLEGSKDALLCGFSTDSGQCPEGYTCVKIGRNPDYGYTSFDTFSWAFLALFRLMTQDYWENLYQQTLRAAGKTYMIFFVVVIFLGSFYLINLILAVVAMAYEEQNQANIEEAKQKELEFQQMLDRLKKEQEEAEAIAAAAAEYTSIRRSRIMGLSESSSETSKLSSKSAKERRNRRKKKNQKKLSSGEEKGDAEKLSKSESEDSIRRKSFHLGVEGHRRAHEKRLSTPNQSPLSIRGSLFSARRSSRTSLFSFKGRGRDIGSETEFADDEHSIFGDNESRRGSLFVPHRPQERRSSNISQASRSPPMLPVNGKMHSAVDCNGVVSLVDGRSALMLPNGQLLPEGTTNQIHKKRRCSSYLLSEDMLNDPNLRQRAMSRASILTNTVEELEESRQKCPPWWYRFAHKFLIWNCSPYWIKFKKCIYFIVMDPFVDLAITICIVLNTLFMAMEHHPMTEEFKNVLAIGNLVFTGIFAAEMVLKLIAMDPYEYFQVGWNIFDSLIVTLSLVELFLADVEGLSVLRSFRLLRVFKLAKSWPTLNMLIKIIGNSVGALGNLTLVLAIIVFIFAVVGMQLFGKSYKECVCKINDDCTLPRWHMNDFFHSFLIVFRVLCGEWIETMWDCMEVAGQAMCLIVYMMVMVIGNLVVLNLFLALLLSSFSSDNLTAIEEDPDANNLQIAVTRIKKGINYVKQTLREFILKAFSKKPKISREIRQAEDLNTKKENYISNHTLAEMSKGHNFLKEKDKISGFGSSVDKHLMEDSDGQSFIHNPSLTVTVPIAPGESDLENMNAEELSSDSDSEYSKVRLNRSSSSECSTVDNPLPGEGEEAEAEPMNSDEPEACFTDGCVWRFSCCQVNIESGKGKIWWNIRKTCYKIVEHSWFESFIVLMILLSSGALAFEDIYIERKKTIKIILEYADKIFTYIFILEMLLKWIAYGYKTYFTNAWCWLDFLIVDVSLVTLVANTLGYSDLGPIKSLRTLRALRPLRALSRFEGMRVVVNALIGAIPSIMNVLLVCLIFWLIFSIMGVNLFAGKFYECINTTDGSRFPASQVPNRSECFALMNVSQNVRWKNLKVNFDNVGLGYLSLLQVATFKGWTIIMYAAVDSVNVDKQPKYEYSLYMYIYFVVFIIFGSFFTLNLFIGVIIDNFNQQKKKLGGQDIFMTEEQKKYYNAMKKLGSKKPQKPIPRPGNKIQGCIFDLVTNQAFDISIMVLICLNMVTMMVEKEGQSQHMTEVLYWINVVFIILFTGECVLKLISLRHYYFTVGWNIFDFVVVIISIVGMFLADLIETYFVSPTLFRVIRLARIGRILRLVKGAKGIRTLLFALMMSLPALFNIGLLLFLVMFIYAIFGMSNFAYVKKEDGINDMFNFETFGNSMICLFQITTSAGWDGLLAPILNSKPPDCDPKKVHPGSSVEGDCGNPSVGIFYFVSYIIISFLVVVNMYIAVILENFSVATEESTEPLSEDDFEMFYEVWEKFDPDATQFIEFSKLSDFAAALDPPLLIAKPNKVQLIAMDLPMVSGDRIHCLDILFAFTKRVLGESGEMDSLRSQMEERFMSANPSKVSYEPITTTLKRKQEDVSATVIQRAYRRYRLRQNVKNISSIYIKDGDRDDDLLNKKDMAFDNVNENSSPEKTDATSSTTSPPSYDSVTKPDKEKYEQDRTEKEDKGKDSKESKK

According to patent US9656959B2, “Substituted pyridines as sodium channel blockers” (Purdue Pharma L.P., priority 2010, dated 2017):

Target: human Nav1.7 (Homo sapiens (Human), UniProt Q15858)
Experiment: FLIPR or FLIPR TETRA sodium dye assay with KCl and test article pre-incubation
Type: cell-based
Settings: read-out: Nav1.7 Activity (μM) FLIPR assay IC50 (μM) ± SEM

N#Cc1ccc(Oc2ccc(-c3cccc(NC(=O)C(O)CO)n3)cc2)cc1C(F)(F)F (stereo not shown) [Compound 75, N-(6-(4-(4-cyano-3-(trifluoromethyl)phenoxy)phenyl)pyridin-2-yl)-2,3-dihydroxypropanamide]
IC50: 0.609 ± 0.027 µM
